scFv variants of Ab-14 (heavy chain) against a SARS-CoV-2 spike peptide

Source: Engelhart et al. 2022 (doi:10.1038/s41597-022-01779-4), MIT Lincoln Laboratory and A-Alpha Bio; data file from the FLAb repository.

Antigen: PDVDLGDISGINAS, a 14-residue peptide of the SARS-CoV-2 spike HR2 region.

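The starting antibody came from a phage panning campaign against this peptide. AAYL49 was designed without a model: most single CDR substitutions and a random sample of double and triple ones. Affinity was read by AlphaSeq, a pooled yeast mating assay with surface-displayed partners. The frequency of each diploid, read from paired DNA barcodes, reflects how well the two displayed proteins bind. Scores were corrected for input abundance and mapped to Kd with protein pairs of known affinity run in the same pool. The assay was run in three technical replicates.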

The variants keep the light chain, the linker and the frameworks of Ab-14 (scFv order VH, a (GGGGS)3 linker, VL).
VH: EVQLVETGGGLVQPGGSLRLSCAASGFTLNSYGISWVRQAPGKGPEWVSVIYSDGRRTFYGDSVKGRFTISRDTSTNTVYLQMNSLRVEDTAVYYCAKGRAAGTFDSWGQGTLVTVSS
VL: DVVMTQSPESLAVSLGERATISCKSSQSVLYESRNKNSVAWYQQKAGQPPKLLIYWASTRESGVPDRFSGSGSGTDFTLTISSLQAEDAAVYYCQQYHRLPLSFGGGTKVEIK

Each variant is given by its three heavy chain CDRs, as the data file delimits them; those of the parent are GFTLNSYGIS, VIYSDGRRTFYGDSVK, GRAAGTFDS. Numbers give log10(Kd / nM), so 0 is 1 nM and 3 is 1 µM. Smaller is tighter. The mean shown is taken over the replicates in which the pair was detected. A pair that was not seen in that replicate is written "ND"; this usually means weak binding, but a binder can also be missed. Background: pairings of library AAYL49 with three empty control strains gave a value in 15% of cases (median 4.06, 5th percentile 2.83). Values in that range, when seen in few replicates, are hard to tell from nonspecific mating. Also given: how often the same scFv was detected with the empty control strains, with their mean in brackets. Parent in this assay: reference entry 0.65, copy in this library 4.11 (one replicate of three).

{"CDR-H1": "GFTLNSYGIS", "CDR-H2": "VIYSDGRRTFHQDSVK", "CDR-H3": "GRAAGTFDS", "log10 Kd, replicates": "2.58 2.54 2.69", "mean log10 Kd (nM)": "2.60", "signal with controls": "1 of 9 (3.79)"}
{"CDR-H1": "GFTLNSYGIS", "CDR-H2": "CRYSDGRRTFYGDSVK", "CDR-H3": "GRAAGTFDS", "log10 Kd, replicates": "ND ND ND", "mean log10 Kd (nM)": "ND", "signal with controls": "0 of 9"}
{"CDR-H1": "GFTFNSYGIS", "CDR-H2": "VIYSDGRRTFYGVSVR", "CDR-H3": "GRAAGTFDS", "log10 Kd, replicates": "3.61 2.78 ND", "mean log10 Kd (nM)": "3.19", "signal with controls": "1 of 9 (2.75)"}
{"CDR-H1": "GFTLNSYGIS", "CDR-H2": "VIYSDLRRDFYGDSVK", "CDR-H3": "GDAAGTFDS", "log10 Kd, replicates": "ND ND ND", "mean log10 Kd (nM)": "ND", "signal with controls": "3 of 9 (3.73)"}
{"CDR-H1": "GFTLWSYGIS", "CDR-H2": "VIYSDGERTFYGDSVK", "CDR-H3": "GRAAGTFDQ", "log10 Kd, replicates": "1.41 1.41 1.75", "mean log10 Kd (nM)": "1.53", "signal with controls": "0 of 9"}
{"CDR-H1": "GFTLNSYGIS", "CDR-H2": "VIYSDGRRTFYGDSVK", "CDR-H3": "GGAAWTFMS", "log10 Kd, replicates": "ND ND ND", "mean log10 Kd (nM)": "ND", "signal with controls": "0 of 9"}
{"CDR-H1": "GFTLNSYGIS", "CDR-H2": "VIYSDGRRTFYGDSVK", "CDR-H3": "GRAAGTCPS", "log10 Kd, replicates": "1.35 1.34 1.38", "mean log10 Kd (nM)": "1.36", "signal with controls": "5 of 9 (4.01)"}
{"CDR-H1": "GFTLNSYGIS", "CDR-H2": "VIYMDGRRTFYGDSVN", "CDR-H3": "GRAAGTFDS", "log10 Kd, replicates": "ND 4.85 ND", "mean log10 Kd (nM)": "4.85", "signal with controls": "1 of 9 (4.63)"}
{"CDR-H1": "GFTLNHYGIS", "CDR-H2": "VIQSDGRRTFYGDSVK", "CDR-H3": "GRAAGTFDY", "log10 Kd, replicates": "ND ND ND", "mean log10 Kd (nM)": "ND", "signal with controls": "1 of 9 (4.74)"}
{"CDR-H1": "GFSLNSYGIS", "CDR-H2": "VIYSDGRRTFYEDSKK", "CDR-H3": "GRAAGTFDS", "log10 Kd, replicates": "ND ND ND", "mean log10 Kd (nM)": "ND", "signal with controls": "2 of 9 (3.67)"}
{"CDR-H1": "GFTLNSYGGC", "CDR-H2": "VIYSDGRRTFYGDSVK", "CDR-H3": "GRAAGTFDS", "log10 Kd, replicates": "ND 3.68 ND", "mean log10 Kd (nM)": "3.68", "signal with controls": "1 of 9 (3.95)"}
{"CDR-H1": "GFTLNSYGES", "CDR-H2": "VQYSDGQRTFYGDSVK", "CDR-H3": "GRAAGTFDS", "log10 Kd, replicates": "ND ND ND", "mean log10 Kd (nM)": "ND", "signal with controls": "0 of 9"}
{"CDR-H1": "WYTLNSYGIS", "CDR-H2": "VIYSDGRRTFYGDMVK", "CDR-H3": "GRAAGTFDS", "log10 Kd, replicates": "ND ND 2.97", "mean log10 Kd (nM)": "2.97", "signal with controls": "0 of 9"}
{"CDR-H1": "GFTLFSYGIS", "CDR-H2": "AIYSDGRRTFYGASVK", "CDR-H3": "GRAAGTFDS", "log10 Kd, replicates": "ND ND ND", "mean log10 Kd (nM)": "ND", "signal with controls": "1 of 9 (2.72)"}
{"CDR-H1": "GFTLNSYPIS", "CDR-H2": "VIYSDGRRTFYGDSVK", "CDR-H3": "GRAAGTFDS", "log10 Kd, replicates": "6.14 3.24 ND", "mean log10 Kd (nM)": "4.69", "signal with controls": "4 of 9 (4.02)"}
{"CDR-H1": "GFTLNSYGIN", "CDR-H2": "VIYSDGRRQFYGDCVK", "CDR-H3": "GRAAGTFDS", "log10 Kd, replicates": "ND ND ND", "mean log10 Kd (nM)": "ND", "signal with controls": "1 of 9 (2.94)"}
{"CDR-H1": "GFTLNSYGIS", "CDR-H2": "VIYSDGRRTFYGDSVK", "CDR-H3": "GRAAGTVDS", "log10 Kd, replicates": "1.55 2.12 1.99", "mean log10 Kd (nM)": "1.89", "signal with controls": "0 of 9"}
{"CDR-H1": "GTTLNSYGIY", "CDR-H2": "VIYSDGRRTFYMDSVK", "CDR-H3": "GRAAGTFDS", "log10 Kd, replicates": "ND ND ND", "mean log10 Kd (nM)": "ND", "signal with controls": "1 of 9 (3.68)"}
{"CDR-H1": "GFTLNSYGIS", "CDR-H2": "VIYSDGRRTFYGDGVR", "CDR-H3": "RRAAGTFDS", "log10 Kd, replicates": "ND ND ND", "mean log10 Kd (nM)": "ND", "signal with controls": "0 of 9"}
{"CDR-H1": "GFTLNSYGIS", "CDR-H2": "VIYTDGRRTFYGDSVK", "CDR-H3": "GRCAGTFDS", "log10 Kd, replicates": "1.77 2.13 1.82", "mean log10 Kd (nM)": "1.91", "signal with controls": "0 of 9"}
{"CDR-H1": "GFTLNSVGGS", "CDR-H2": "VIYSDGRRTFYGDSVK", "CDR-H3": "GWAAGTFDS", "log10 Kd, replicates": "ND ND ND", "mean log10 Kd (nM)": "ND", "signal with controls": "1 of 9 (2.86)"}
{"CDR-H1": "GFTLNSYGAS", "CDR-H2": "VIYSDGRRTFYGLSVK", "CDR-H3": "QRAAGTFDS", "log10 Kd, replicates": "ND ND ND", "mean log10 Kd (nM)": "ND", "signal with controls": "0 of 9"}
{"CDR-H1": "GFILNSRGIS", "CDR-H2": "VIYGDGRRTFYGDSVK", "CDR-H3": "GRAAGTFDS", "log10 Kd, replicates": "ND ND ND", "mean log10 Kd (nM)": "ND", "signal with controls": "2 of 9 (3.17)"}

The last 2 entries again:

{"CDR-H1": "GFTLNSYGAS", "CDR-H2": "VIYSDGRRTFYGLSVK", "CDR-H3": "QRAAGTFDS", "log10 Kd, replicates": "ND ND ND", "mean log10 Kd (nM)": "ND", "signal with controls": "0 of 9"}
{"CDR-H1": "GFILNSRGIS", "CDR-H2": "VIYGDGRRTFYGDSVK", "CDR-H3": "GRAAGTFDS", "log10 Kd, replicates": "ND ND ND", "mean log10 Kd (nM)": "ND", "signal with controls": "2 of 9 (3.17)"}